According to US9139532B2, “Pyrazolyl guanidine F1F0-atpase inhibitors and therapeutic uses thereof” (Lycera Corporation, priority 2010, dated 2015):

Legend:
F1F0-ATPase = F1F0-ATPase (Bos taurus, UniProt P13621); assay: Inhibition of F1F0-ATPase activity in synthesizing ATP; format: biochemical; conditions: read-out: ATP Syn IC50; inhibition of ATP synthesis by F1F0-ATPase
Ramos cells = assay: Cytotoxicity in Ramos cells; format: cell-based; conditions: read-out: Ramos Cell EC50

IC50 (F1F0-ATPase) [µM]	Compound	EC50 (Ramos cells) [µM]
< 10	COC[C@H](C)NC(=NC(=O)c1ccc(C(F)(F)F)nc1)Nc1cc(C(F)(F)F)n[nH]1	< 10
< 10	CCOC[C@H](C)NC(=NC(=O)c1ccc(Cl)cc1)Nc1cc(-c2cc(F)cc(F)c2)n[nH]1	> 10
< 10	COC[C@H](C)NC(=NC(=O)c1ccc(F)cc1)Nc1cc(C(F)(F)F)n[nH]1	> 10

More lines, now with the values behind:

Compound	IC50 (F1F0-ATPase) [µM]	EC50 (Ramos cells) [µM]
COC[C@H](C)NC(=NC(=O)c1cccnc1C(F)(F)F)Nc1cc(-c2ccc(F)cc2)n[nH]1	> 10	> 10
Cc1ccc(-c2cc(NC(=NC(=O)c3ccc(C(F)(F)F)cc3)NCCCOC(C)C)[nH]n2)cc1F	< 10	< 10
CCOC[C@H](C)NC(=NC(=O)c1ccc(F)cc1)Nc1cc(-c2ccc(C)c(F)c2)n[nH]1	< 10	< 10
